Measurements reported in US8168679B2, “Salts of Tramadol and Naproxen and their crystal forms in the treatment of pain” (Laboratorios del Dr. Esteve, S.A., priority 2007, dated 2012).

Assay: Determination of the hygroscopicity of the crystalline salts (weight variation and Karl Fischer in humidity chamber)
Format: physicochemical
Description: The objective was to measure the hygroscopicity of the salts of the present invention, and comparing it with the one of the known salt of each counter part of the salts. The increasing of the weight will be measured in order to evaluate the incorporation of water in the samples, together with the Karl Fischer factor.
According to “Technical guide for the elaboration of monographs” special issue PharmaEuropa, 3rd ed., December 1999, the hygroscopicity is defined based on the augmentation of weight after 24 hours of exposition to 80% of relative humidity at 25° C. The scale is the following:
Methods: • Preparation of the Humidity chamber: A supersaturated solution of sodium nitrite (45 g/50 ml) is prepared and introduced in a humidification chamber (samplaterecord). The chamber is maintained at a temperature of 25±2° C. during 24 hours before use, and humidity is controlled each day. […] 102.2 mg of sodium naproxen. • The samples are introduced in the conditioned humidity chamber, and the weight is controlled after 24 hours, 48 hours, and 6 days, till an equilibrium is reached (2 successive control with a variation of weight less than 0.2 mg). • The Karl Fischer is also determined (using a Methrom 756 KF) at the beginning and at the end of the study.
The variation of the weight is controlled and the following percentage is calculated: Δ% weigth=(Pn−P1)/P1×100 wherein: P1 is the initial weight, Pn is the weight measured for the sample.

With “(R,R)-Tramadol-(S)-Naproxene Salt [Example 2]” the “KF (t = 0)” value (Karl Fischer value at the beginning of the study) was 0.34, the “KF (t = 6 days)” value (Karl Fischer value at the end of the study, 6 days in humidity chamber) was 0.2 and the “hygroscopicity according to the scale” value (class by % incorporation of water) was “not hygroscopic”. The “observation of the powder in the course of the experiment” value (humidity chamber, 64% relative humidity, 25±2° C.) was “remains a powder”, the “Δ % weigth 24 h” value (humidity chamber, 64% relative humidity, 25±2° C., 24 h) was 0% and the “Δ % weigth 48 h” value (humidity chamber, 64% relative humidity, 25±2° C., 48 h) was 0%. The “Δ % weigth 6 days” value (humidity chamber, 64% relative humidity, 25±2° C., 6 days) was 0%.
